Laboratory results: PubChem BioAssay AID1159524 (National Center for Advancing Translational Sciences (NCATS), 2015)
This is a selection; strong and weak results do not stand in their true shares. Some of these compounds have results that are not shown, active ones among them. Inconclusive results are not listed. The source made the active and inactive calls. Calls come from the whole dose curve; tested in HEK293T cells.
% is set by controls: 0 for no effect and ±100 for the full control effect.

Assay: High Throughput Screening for Foot and Mouth Disease Virus Antivirals; note: read-out not given here; nearly all actives have a fitted effect of over 45% in size
Settings: FMDV antiviral cell-based qHTS; at 57.9 µM (top of the series)
In the case of `C=CCN1CCN(CCOC(=O)C(O)(c2ccccc2)c2ccccc2)CC1`, the activity change, negative = inhibition is reported as inactive: -5.61%.
With `CC(C)N1C(=O)CC2(CCN(CCOC(=O)C(O)(c3ccccc3)c3ccccc3)CC2)C1=O` the activity change, negative = inhibition was inactive: -8.04%.
